Test results published in patent US7629341B2, “Human ADAM-10 inhibitors” (Symphony Evolution, Inc., priority 2003, dated 2009).

What was measured:
ADAM-10 = target: T1, ADAM-10 (UniProt O14672); test: ADAM-10 enzyme assay, cleavage of a fluorogenic 10-residue peptide; type: biochemical, mouse or human (mADAM-10 or hADAM-10); details: in vitro;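 further: mouse or human ADAM-10 at 5 nM active enzyme, pH 8.0 HEPES buffer with CaCl2 and NP-40, compounds titrated 100 µM down to 0.5 nM, fluorescence read after 16 h at room temperature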
T1 sequence (O14672 1-748): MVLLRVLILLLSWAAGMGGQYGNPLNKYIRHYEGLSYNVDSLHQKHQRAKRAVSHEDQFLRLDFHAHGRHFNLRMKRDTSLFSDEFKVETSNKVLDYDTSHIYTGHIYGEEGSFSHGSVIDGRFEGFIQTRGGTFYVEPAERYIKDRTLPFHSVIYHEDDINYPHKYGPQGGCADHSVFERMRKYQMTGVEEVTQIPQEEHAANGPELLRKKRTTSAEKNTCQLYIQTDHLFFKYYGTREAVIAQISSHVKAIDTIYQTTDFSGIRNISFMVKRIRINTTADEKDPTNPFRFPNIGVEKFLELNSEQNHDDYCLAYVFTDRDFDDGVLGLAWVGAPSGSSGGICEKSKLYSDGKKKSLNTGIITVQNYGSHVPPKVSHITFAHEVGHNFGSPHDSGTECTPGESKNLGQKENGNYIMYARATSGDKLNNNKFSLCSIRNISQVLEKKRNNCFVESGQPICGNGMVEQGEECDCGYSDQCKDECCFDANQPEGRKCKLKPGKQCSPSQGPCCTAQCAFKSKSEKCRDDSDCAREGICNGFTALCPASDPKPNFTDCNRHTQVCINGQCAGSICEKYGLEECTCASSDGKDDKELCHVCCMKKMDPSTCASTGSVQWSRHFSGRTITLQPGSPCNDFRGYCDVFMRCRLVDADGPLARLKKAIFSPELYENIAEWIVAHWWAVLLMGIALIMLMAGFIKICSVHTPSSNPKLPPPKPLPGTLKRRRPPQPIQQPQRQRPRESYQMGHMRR

[1] = target: T2, MMP-2 (72 kDa gelatinase, gelatinase A) (Homo sapiens, UniProt P08253); test: In vitro metalloprotease inhibition, MMP-2; type: biochemical
T2 sequence (P08253 110-660): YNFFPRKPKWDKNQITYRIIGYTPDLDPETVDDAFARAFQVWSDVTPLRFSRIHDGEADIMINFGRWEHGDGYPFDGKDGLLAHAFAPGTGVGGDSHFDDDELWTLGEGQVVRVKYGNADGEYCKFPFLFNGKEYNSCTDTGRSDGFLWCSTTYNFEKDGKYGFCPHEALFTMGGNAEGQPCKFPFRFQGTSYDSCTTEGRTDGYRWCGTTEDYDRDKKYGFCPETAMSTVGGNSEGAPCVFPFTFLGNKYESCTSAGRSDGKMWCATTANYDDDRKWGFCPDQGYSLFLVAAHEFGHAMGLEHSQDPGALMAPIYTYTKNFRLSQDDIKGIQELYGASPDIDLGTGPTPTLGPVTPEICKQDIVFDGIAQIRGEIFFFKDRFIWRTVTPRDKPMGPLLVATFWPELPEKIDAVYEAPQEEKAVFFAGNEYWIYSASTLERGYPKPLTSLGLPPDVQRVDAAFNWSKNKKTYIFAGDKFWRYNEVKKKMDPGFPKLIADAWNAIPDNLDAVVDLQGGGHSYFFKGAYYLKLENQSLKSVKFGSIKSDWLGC
Excerpt: (§1) Blank cells indicate lack of data only.

[2] = target: MMP-8 (Neutrophil collagenase) (Homo sapiens, UniProt P22894); test: In vitro metalloprotease inhibition, MMP-8; type: biochemical
Excerpt: as §1

[3] = target: MMP-9 (92 kDa gelatinase, gelatinase B) (Homo sapiens, UniProt P14780); test: In vitro metalloprotease inhibition, MMP-9; type: biochemical
Excerpt: as §1

MMP-13 (collagenase-3) = MMP-13 (collagenase-3) (Homo sapiens, UniProt P45452); test: In vitro metalloprotease inhibition, MMP-13; type: biochemical
Excerpt: as §1

Measured: IC50

COCCOC(=O)N1CCN(S(=O)(=O)c2cc(F)c(Oc3ccc(Cl)cc3)c(F)c2)[C@@H](C(=O)NO)C1 [Entry 15]
< 50 nM: all assays above
